Binding of CDR-mutated scFvs to a peptide of the spike HR2 region

Antigen: PDVDLGDISGINAS, a 14-residue peptide of the SARS-CoV-2 spike HR2 region.

Ab-14 is the parent antibody, in scFv form: VH, then three GGGGS repeats, then VL. The heavy chain is unchanged in all variants.
VH: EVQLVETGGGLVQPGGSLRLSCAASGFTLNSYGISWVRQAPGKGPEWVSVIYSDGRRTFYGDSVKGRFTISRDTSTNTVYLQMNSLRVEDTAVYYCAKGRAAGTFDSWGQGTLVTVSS
VL: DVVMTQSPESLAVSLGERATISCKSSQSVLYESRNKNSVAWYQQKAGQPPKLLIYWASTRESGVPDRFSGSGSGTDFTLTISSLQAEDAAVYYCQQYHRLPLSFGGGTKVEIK

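The parent was found by panning a naive human phage display library on the peptide. The library (AAYL50) carries one to three amino acid substitutions per variant, with no insertions or deletions. In AlphaSeq, yeast of one mating type display the scFv and yeast of the other type display the target. Pairs that bind mate more often; barcode pairs of the diploids are counted by sequencing. A regression on co-assayed BCL2-family reference pairs converts the normalised counts of each replicate to an apparent Kd. The assay was run in three technical replicates.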

Changes read parent residue, position, new residue, counted from the first residue of the VL shown. Kd is apparent (estimated from mating counts) and averaged on the log scale over replicates with a signal. Smaller is tighter. Where no diploid with the target was found in any replicate, the entry reads "no signal": below detection, most likely a poor binder, though not proof of it. The list is sorted by this average, lowest first, undetected variants last. Background: pairings of library AAYL50 with three empty control strains gave a value in 18% of cases (median 15 µM, 5th percentile 970 nM). Values in that range, when seen in few replicates, are hard to tell from nonspecific mating. For each scFv, signals with the empty controls are counted beside the result.

changes	apparent Kd	replicates with signal	control signals
Q27I V29Y W56E	270 pM	3 of 3	0 of 9
W56G S62E	800 pM	3 of 3	3 of 9
S25Y V29Y W56R	1.8 nM	3 of 3	0 of 9
S28K E32D Q96C	11 nM	3 of 3	2 of 9
R99A P101V	13 nM	3 of 3	0 of 9
K24A Q27D	13 nM	3 of 3	2 of 9
R34P A57V E61V	13 nM	3 of 3	3 of 9
S26L L30A	18 nM	3 of 3	3 of 9
K24V S38P E61L	19 nM	3 of 3	0 of 9
K36I S58Q H98P	20 nM	3 of 3	2 of 9
L30S K36G Q95V	21 nM	3 of 3	7 of 9
S26R Y31P T59C	22 nM	3 of 3	0 of 9
A57E E61N H98S	38 nM	3 of 3	0 of 9
S26T S33Q S38Y	39 nM	1 of 3	0 of 9
S26P Y31M S103R	42 nM	3 of 3	3 of 9
N37W Y97S S103Q	59 nM	3 of 3	4 of 9
E32N K36C W56L	72 nM	3 of 3	3 of 9
S25P S26H S33A	110 nM	3 of 3	0 of 9
N35T N37H S38D	140 nM	3 of 3	0 of 9
N35C E61V Y97C	160 nM	3 of 3	2 of 9
S28D E32H R34G	180 nM	3 of 3	0 of 9
S26F K36H S58H	180 nM	2 of 3	1 of 9
N35E Q95A P101Q	280 nM	3 of 3	0 of 9
S28C N35H T59I	340 nM	3 of 3	2 of 9
Y31E E32C R60M	470 nM	3 of 3	2 of 9
S25W K36D	500 nM	1 of 3	0 of 9
K24S L30C S38D	530 nM	3 of 3	1 of 9
E32I W56P	550 nM	3 of 3	5 of 9
S33E T59G S103W	1.3 µM	3 of 3	1 of 9
K36N Q95A Q96T	2.5 µM	2 of 3	5 of 9
S28C E61H	3.3 µM	3 of 3	1 of 9
K36H A40W S103Q	4.2 µM	1 of 3	3 of 9
S38T H98C L100P	4.4 µM	3 of 3	0 of 9
N35K A57I R60P	4.7 µM	1 of 3	2 of 9
K36M Q95R	5.3 µM	1 of 3	0 of 9
Y31W S33H S103W	8.7 µM	2 of 3	0 of 9
S26W Q96P S103K	9.8 µM	1 of 3	3 of 9
Y31R E61P S103M	10 µM	2 of 3	2 of 9
W56C R60N	17 µM	2 of 3	3 of 9
Q27D T59L L102V	28 µM	1 of 3	2 of 9
A40W S62V P101S	94 µM	1 of 3	1 of 9
N35A A40C L100R	no signal	0 of 3	0 of 9
S25V A57N S58P	no signal	0 of 3	0 of 9
S28D W56Y R99K	no signal	0 of 3	1 of 9
S25K R60V Q96G	no signal	0 of 3	1 of 9
K24F S25G P101I	no signal	0 of 3	0 of 9
S25A T59D Y97P	no signal	0 of 3	1 of 9
Y31I R60W Y97R	no signal	0 of 3	0 of 9
S25G L100K	no signal	0 of 3	2 of 9
L30W K36P Q95Y	no signal	0 of 3	0 of 9
A40M W56A Q96F	no signal	0 of 3	0 of 9
S28H Y31T H98A	no signal	0 of 3	0 of 9
A40T T59W R99M	no signal	0 of 3	0 of 9
S25R E32C L102K	no signal	0 of 3	0 of 9
N37V Q96I S103L	no signal	0 of 3	0 of 9
K36Q V39N A57F	no signal	0 of 3	0 of 9
V29E V39M Y97N	no signal	0 of 3	0 of 9
S33Q N37I H98P	no signal	0 of 3	0 of 9

The opening 10 entries, copied out:

changes	apparent Kd	replicates with signal	control signals
Q27I V29Y W56E	270 pM	3 of 3	0 of 9
W56G S62E	800 pM	3 of 3	3 of 9
S25Y V29Y W56R	1.8 nM	3 of 3	0 of 9
S28K E32D Q96C	11 nM	3 of 3	2 of 9
R99A P101V	13 nM	3 of 3	0 of 9
K24A Q27D	13 nM	3 of 3	2 of 9
R34P A57V E61V	13 nM	3 of 3	3 of 9
S26L L30A	18 nM	3 of 3	3 of 9
K24V S38P E61L	19 nM	3 of 3	0 of 9
K36I S58Q H98P	20 nM	3 of 3	2 of 9

From the AlphaSeq antibody data of Engelhart et al. 2022 (doi:10.1038/s41597-022-01779-4), copy in the FLAb collection.